Measured values as given in patent US20160083400A1, “TRICYCLIC GUANIDINE DERIVATIVE” (Sunovion Pharmaceuticals Inc., priority 2014, published 2016).

Sequences of proteins named here, by UniProt entry; tags and fusion partners are left off.
UniProt Q01064, whole entry: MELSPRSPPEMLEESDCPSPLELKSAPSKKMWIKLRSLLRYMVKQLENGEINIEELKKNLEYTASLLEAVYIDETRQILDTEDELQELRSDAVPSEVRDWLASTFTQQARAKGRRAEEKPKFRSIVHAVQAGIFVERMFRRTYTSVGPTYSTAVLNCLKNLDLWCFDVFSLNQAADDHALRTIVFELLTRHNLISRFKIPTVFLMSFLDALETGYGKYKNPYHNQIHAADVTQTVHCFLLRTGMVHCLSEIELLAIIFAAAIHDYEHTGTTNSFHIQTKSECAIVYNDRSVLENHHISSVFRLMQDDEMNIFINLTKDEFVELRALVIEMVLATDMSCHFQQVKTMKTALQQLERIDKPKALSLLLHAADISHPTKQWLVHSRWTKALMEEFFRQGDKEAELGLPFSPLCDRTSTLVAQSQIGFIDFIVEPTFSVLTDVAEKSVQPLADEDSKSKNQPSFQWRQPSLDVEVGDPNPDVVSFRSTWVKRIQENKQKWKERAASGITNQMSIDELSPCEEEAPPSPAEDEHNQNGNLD

Each compound was assayed against PDE1B (Homo sapiens, UniProt Q01064) (assay: In vitro HTRF PDE1 inhibition assay (PDE1B)). Conditions: read-out: IC50 (μM), in vitro PDE1B HTRF Assay, 100 nM cyclic GMP, calmodulin, 45 minutes at 37° C.
CCc1cnc(C2Cn3c(nn4c(C(C)C)ncc4c3=O)N2)cn1 (single isomer, unassigned) was tested, and the IC50 was 10 to 100 µM.
COc1ccc([C@@H]2Cn3c(nn4c(C(C)C)ncc4c3=O)N2)nc1 gave an IC50 of 10 to 100 µM.
With CC(C)c1ncc2c(=O)n3c(nn12)N[C@H](c1ccc(C(C)(C)C)nc1)C3 the IC50 was 1 to 10 µM.
O=c1c2cnn(C3CCCC3)c2nc2n1CCC(Cc1ccc(Cl)cc1)N2 (stereo not drawn) was tested, and the IC50 was under 1 µM.
O=c1c2cnc(C3CCCC3)n2nc2n1CC(c1cncc(Cl)c1)N2 (single isomer, unassigned) gave an IC50 of 1 to 10 µM.
COc1ccc(C2Cn3c(nn4c(C5CCOCC5)ncc4c3=O)N2)cc1 (stereo not drawn) gave an IC50 of under 1 µM.
For CC(C)c1ncc2c(=O)n3c(nn12)NC(c1cccc(Cl)c1)C3 (stereo not drawn), the IC50 was under 1 µM.
Cc1ccnc(C2Cn3c(nn4c(C5CCCC5)ncc4c3=O)N2)c1 (single isomer, unassigned) [217] was tested, and the IC50 was 1 to 10 µM.
COc1ccc([C@H]2Cn3c(nn4c(C(C)C)ncc4c3=O)N2)cn1 showed an IC50 of under 1 µM.
CC(C)c1ccc(C2Cn3c(nn4c(C(C)C)ncc4c3=O)N2)cn1 (single isomer, unassigned) [203] was tested, and the IC50 was under 1 µM.
With O=c1c2ccnc(C3CCOCC3)c2nc2n1C(c1ccc(Cl)cc1)CCN2 (stereo not drawn) the IC50 was under 1 µM.
In the case of O=c1c2cnc(C3CCOCC3)n2nc2n1CC(c1ccc(C(F)(F)F)cc1)N2 (single isomer, unassigned), the IC50 is reported as under 1 µM.
Compound CO[C@@H](C)c1ncc2c(=O)n3c(nn12)NC(c1ccc(C(C)C)cn1)C3 (single isomer, unassigned) [223] has an IC50 of 10 to 100 µM.
O=c1c2cnc(C3CCOCC3)n2nc2n1CC(c1ccc(Cl)cc1C(F)(F)F)N2 (single isomer, unassigned) showed an IC50 of 10 to 100 µM.
CC(C)c1ncc2c(=O)n3c(nn12)N[C@H](c1ccc(C(F)(F)F)nc1)C3 was tested, and the IC50 was 1 to 10 µM.
Compound COc1ccc(CC2CCn3c(nc4c(cnn4C4CCCC4)c3=O)N2)cc1 (stereo not drawn) has an IC50 of under 1 µM.
For CCc1ccc(C2Cn3c(nn4c(C(C)C)ncc4c3=O)N2)nn1 (single isomer, unassigned) [205], the IC50 was 10 to 100 µM.
CC(C)c1ncc2c(=O)n3c(nn12)NCC3 gave an IC50 of under 1 µM.
Compound COc1cncc(C2Cn3c(nn4c(C5CCCC5)ncc4c3=O)N2)c1 (single isomer, unassigned) [218] has an IC50 of under 1 µM.
Compound COCc1cc(Cl)ccc1C1Cn2c(nn3c(C4CCOCC4)ncc3c2=O)N1 (single isomer, unassigned) [211] has an IC50 of 1 to 10 µM.
CC(C)c1ncc2c(=O)n3c(nn12)NC(c1ccc(F)cc1)C3 (stereo not drawn) was tested, and the IC50 was under 1 µM.
CC(C)c1ncc2c(=O)n3c(nn12)N[C@@H](c1ccc(C(F)(F)F)nc1)C3 showed an IC50 of under 1 µM.
With CCc1ccc([C@@H]2Cn3c(nn4c(C(C)C)ncc4c3=O)N2)nc1 the IC50 was 1 to 10 µM.
Work on COc1ccc([C@@H]2Cn3c(nn4c(C(C)C)ncc4c3=O)N2)cn1 yielded an IC50 of under 1 µM.
O=c1c2cnc(CC3CC3)n2nc2n1C[C@H](c1ccc(Cl)cc1)N2 gave an IC50 of under 1 µM.
COc1ccc(C2Cn3c(nc4c(cnn4C4CCOCC4)c3=O)N2)cc1 (single isomer, unassigned) [24] gave an IC50 of under 1 µM.
CC(C)c1ccc(C2Cn3c(nn4c(C5CCOCC5)ncc4c3=O)N2)cc1 (single isomer, unassigned) showed an IC50 of under 1 µM.
Work on COc1ccc([C@H]2Cn3c(nn4c(C(C)C)ncc4c3=O)N2)nc1 yielded an IC50 of under 1 µM.
Cc1cccc(C2Cn3c(nn4c(C5CCOCC5)ncc4c3=O)N2)c1 (single isomer, unassigned) [117] gave an IC50 of under 1 µM.
CCc1ccc(C2Cn3c(nn4c(C(C)C)ncc4c3=O)N2)nc1 (single isomer, unassigned) showed an IC50 of under 1 µM.
Compound COc1cccc(C2Cn3c(nn4c(C5CCOCC5)ncc4c3=O)N2)c1 (single isomer, unassigned) [113] has an IC50 of 1 to 10 µM.
Compound Cc1ccc(C2Cn3c(nn4c(C(C)C)ncc4c3=O)N2)nc1 (single isomer, unassigned) [208] has an IC50 of under 1 µM.
In the case of CC(C)Cc1ncc2c(=O)n3c(nn12)NC(c1ccc(Cl)cc1)C3 (stereo not drawn), the IC50 is reported as under 1 µM.
O=c1c2cnc(C3CCOCC3)n2nc2n1CC1(CCc3ccccc31)N2 (stereo not drawn) was tested, and the IC50 was 1 to 10 µM.
Work on CC(C)(C)c1ccc(C2Cn3c(nn4c(C5CCOCC5)ncc4c3=O)N2)cc1 (single isomer, unassigned) yielded an IC50 of under 1 µM.
Work on Cc1ccc(C2Cn3c(nn4c(C(C)C)ncc4c3=O)N2)nc1 (single isomer, unassigned) [209] yielded an IC50 of 10 to 100 µM.
COc1cc(C)ccc1C1Cn2c(nn3c(C4CCOCC4)ncc3c2=O)N1 (single isomer, unassigned) [115] showed an IC50 of under 1 µM.
O=c1c2cnc(C3CCOCC3)n2nc2n1CC(c1cccc(Cl)c1)N2 (single isomer, unassigned) gave an IC50 of under 1 µM.
CO[C@H](C)c1ncc2c(=O)n3c(nn12)NC(c1ccc(C(C)C)cn1)C3 (single isomer, unassigned) [220] gave an IC50 of under 1 µM.
For CC(C)c1ncc2c(=O)n3c(nn12)NC(c1ccc(C#N)cc1)C3 (stereo not drawn), the IC50 was under 1 µM.
Compound COc1cccc(C2Cn3c(nn4c(C5CCOCC5)ncc4c3=O)N2)c1 (single isomer, unassigned) [112] has an IC50 of under 1 µM.
In the case of CCc1ccc(C2Cn3c(nn4c(C5CCOCC5)ncc4c3=O)N2)cc1 (single isomer, unassigned), the IC50 is reported as under 1 µM.
Compound Cc1ccnc(C2Cn3c(nn4c(C5CCCC5)ncc4c3=O)N2)c1 (single isomer, unassigned) [216] has an IC50 of under 1 µM.
O=c1c2cnc(C3CCOCC3)n2nc2n1CC(c1ccc(Cl)cn1)N2 (stereo not drawn) gave an IC50 of under 1 µM.
With CC[C@@H](C)c1ncc2c(=O)n3c(nn12)N[C@@H](c1ccc(Cl)cc1)C3 (single isomer, unassigned) the IC50 was under 1 µM.
In the case of CC(C)c1ncc2c(=O)n3c(nn12)NC(c1ccccc1)C3 (stereo not drawn), the IC50 is reported as under 1 µM.
CC(C)c1ncc2c(=O)n3c(nn12)NC(c1ccc(Cl)cc1)C3 (stereo not drawn) showed an IC50 of under 1 µM.
Cc1cccc(C2Cn3c(nn4c(C5CCOCC5)ncc4c3=O)N2)c1 (single isomer, unassigned) [116] showed an IC50 of 1 to 10 µM.
COc1ccc(C2Cn3c(nn4c(C(C)C)ncc4c3=O)N2)cc1 (stereo not drawn) showed an IC50 of under 1 µM.
CO[C@@H](C)c1ncc2c(=O)n3c(nn12)NC(c1ccc(C(C)C)cn1)C3 (single isomer, unassigned) [221] showed an IC50 of under 1 µM.
O=c1c2cnc(C3CCOCC3)n2nc2n1CC(c1ccc(F)cc1)N2 (stereo not drawn) was tested, and the IC50 was under 1 µM.
Compound O=c1c2cnc(C3CCOCC3)n2nc2n1CC(c1ccc(Cl)cc1)N2 (stereo not drawn) has an IC50 of under 1 µM.
CCCc1ncc2c(=O)n3c(nn12)NC(c1ccc(Cl)cc1)C3 (stereo not drawn) gave an IC50 of under 1 µM.
N#Cc1ccc(C2Cn3c(nn4c(C5CCOCC5)ncc4c3=O)N2)cc1 (stereo not drawn) gave an IC50 of under 1 µM.
In the case of CC1(c2ncc3c(=O)n4c(nn23)N[C@@H](c2ccc(Cl)cc2)C4)CCCC1, the IC50 is reported as under 1 µM.
In the case of Cc1cncc(C2Cn3c(nn4c(C5CCCC5)ncc4c3=O)N2)c1 (single isomer, unassigned) [214], the IC50 is reported as 1 to 10 µM.
CCc1ccc([C@@H]2Cn3c(nn4c(C(C)C)ncc4c3=O)N2)cn1 gave an IC50 of 1 to 10 µM.
CCc1ccc(C2Cn3c(nn4c(C(C)C)ncc4c3=O)N2)nn1 (single isomer, unassigned) [206] was tested, and the IC50 was under 1 µM.
Work on O=c1c2cnc(C3CCOCC3)n2nc2n1CC1(CCCc3ccccc31)N2 (stereo not drawn) yielded an IC50 of 1 to 10 µM.
CO[C@H](C)c1ncc2c(=O)n3c(nn12)N[C@@H](c1ccc(Cl)cc1)C3 showed an IC50 of under 1 µM.
Work on COCc1cc(Cl)ccc1C1Cn2c(nn3c(C4CCOCC4)ncc3c2=O)N1 (single isomer, unassigned) [210] yielded an IC50 of 10 to 100 µM.
Cc1cncc(C2Cn3c(nn4c(C5CCCC5)ncc4c3=O)N2)c1 (single isomer, unassigned) [215] gave an IC50 of under 1 µM.
Work on COCc1ncc2c(=O)n3c(nn12)N[C@@H](c1ccc(Cl)cc1)C3 yielded an IC50 of under 1 µM.
In the case of CO[C@H](C)c1ncc2c(=O)n3c(nn12)NC(c1ccc(C(C)C)cn1)C3 (single isomer, unassigned) [222], the IC50 is reported as 10 to 100 µM.
In the case of CC[C@H](C)c1ncc2c(=O)n3c(nn12)N[C@@H](c1ccc(Cl)cc1)C3, the IC50 is reported as under 1 µM.
In the case of CC(C)n1ncc2c(=O)n3c(nc21)NC(c1ccc(F)cc1)C3 (stereo not drawn), the IC50 is reported as under 1 µM.
With COc1cncc(C2Cn3c(nn4c(C5CCCC5)ncc4c3=O)N2)c1 (single isomer, unassigned) [219] the IC50 was 1 to 10 µM.
CC(C)c1ccc(C2Cn3c(nn4c(C(C)C)ncc4c3=O)N2)nc1 (single isomer, unassigned) [201] was tested, and the IC50 was 1 to 10 µM.
COc1cc(C)ccc1C1Cn2c(nn3c(C4CCOCC4)ncc3c2=O)N1 (single isomer, unassigned) [114] showed an IC50 of 1 to 10 µM.
With O=c1c2cnc(C3(C(F)(F)F)CC3)n2nc2n1C[C@H](c1ccc(Cl)cc1)N2 the IC50 was under 1 µM.
With CC(C)c1ccc(C2Cn3c(nn4c(C(C)C)ncc4c3=O)N2)cn1 (single isomer, unassigned) [204] the IC50 was 1 to 10 µM.
Compound CO[C@@H](C)c1ncc2c(=O)n3c(nn12)N[C@@H](c1ccc(Cl)cc1)C3 has an IC50 of under 1 µM.
In the case of O=c1c2cnn(C3CCCC3)c2nc2n1CCC(c1ccccc1)N2 (stereo not drawn), the IC50 is reported as under 1 µM.
Compound CC(C)n1ncc2c(=O)n3c(nc21)NC(c1cccc(Cl)c1)C3 (stereo not drawn) has an IC50 of under 1 µM.
For CCc1ccc([C@H]2Cn3c(nn4c(C(C)C)ncc4c3=O)N2)cn1, the IC50 was under 1 µM.
